The record followed here is PubChem BioAssay AID624330 (Southern Research Specialized Biocontainment Screening …, 2012).

By UniProt entry, the sequences of proteins in these tests, tags left out.
UniProt Q9H0H5, whole entry: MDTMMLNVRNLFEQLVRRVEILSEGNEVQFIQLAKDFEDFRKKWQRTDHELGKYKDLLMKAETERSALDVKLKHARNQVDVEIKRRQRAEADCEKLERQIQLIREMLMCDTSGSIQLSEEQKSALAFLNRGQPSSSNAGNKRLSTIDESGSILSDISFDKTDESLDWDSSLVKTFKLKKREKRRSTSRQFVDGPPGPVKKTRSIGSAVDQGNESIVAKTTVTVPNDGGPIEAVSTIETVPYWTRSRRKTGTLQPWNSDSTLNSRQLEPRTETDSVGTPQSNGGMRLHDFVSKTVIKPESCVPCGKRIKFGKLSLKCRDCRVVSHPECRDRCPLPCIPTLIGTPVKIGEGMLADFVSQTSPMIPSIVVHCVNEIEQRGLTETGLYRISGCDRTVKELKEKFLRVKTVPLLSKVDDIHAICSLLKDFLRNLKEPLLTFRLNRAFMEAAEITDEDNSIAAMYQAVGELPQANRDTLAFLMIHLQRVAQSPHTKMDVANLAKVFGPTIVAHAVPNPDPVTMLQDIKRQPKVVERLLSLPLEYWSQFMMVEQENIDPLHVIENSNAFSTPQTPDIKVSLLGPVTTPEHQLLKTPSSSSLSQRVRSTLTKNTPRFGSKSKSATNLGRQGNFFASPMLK

As usually defined, the inhibition is the drop in the measured response relative to a control, in per cent.

Molecules are shown by their SMILES. The list shows a part of the results. Measured potencies and affinities stand elsewhere. Activity calls are given as the source filed them.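 Rule for the calls: active = first-screen hits whose inhibition reached a set limit at any dose in the follow-up dose series; inconclusive = inhibition above the set first-screen limit but never retested; inactive = the rest.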

The target of the assay is Rac GTPase-activating protein 1 (Homo sapiens) (UniProt Q9H0H5). The assay can be described thus: blockers of MgcRacGAP-driven Rac1 GTP hydrolysis – biochemical, ADP Hunter fluorescence, primary and confirmatory, confirmation (AID 624330).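 Note: fluorescence reports GDP produced by GAP-driven GTP hydrolysis.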 The following applies: MgcRacGAP-stimulated Rac1 GTP hydrolysis, at 30 µM, stronger effect = higher value, GST-tagged Rac1 F28L mutant substrate.
Regarding `CC(=O)N(c1ccccc1)C1CCNCC1`, the inhibition was inactive: 3.6%.

Regarding `COc1cc(OC)cc(C(=O)NCC2(N3CCCCC3)CCCCC2)c1`, the inhibition is inactive: 6.61%.

Take `Fc1ccccc1NC1CCN(Cc2ccccc2)CC1`: the inhibition was inactive: 7.75%.

For the molecule `Cc1ccc(C(=O)NCC2(N3CCCCC3)CCCCC2)o1`, the inhibition was inactive: 2.21%.

As for `Cc1ccc(NC2(C#N)CCN(Cc3ccccc3)CC2)cc1`, the inhibition is inactive: -0.03%.

On to `CCN1CCC(Nc2cccc(F)c2)CC1`, for which the inhibition is inactive: -1.2%.

Take `Cc1ccccc1NC1(C#N)CCN(Cc2ccccc2)CC1`: the inhibition was inactive: -7.21%.

Consider `CN(C)c1ccc(C(=O)NCC2(N3CCCCC3)CCCCC2)cc1`, for which the inhibition is inactive: 7.01%.

For `Cn1c(=O)[nH]cc(N(CCCl)CCCl)c1=O`, the inhibition was inactive: 8.21%.

Turning to `O=C(NCC1(N2CCCCC2)CCCCC1)c1ccco1`, the inhibition was inactive: 5.74%.

Consider `CN1CCC(Nc2ccc(F)c(Cl)c2)CC1`, for which the inhibition was inactive: 29.5%.

Take `CCOc1ncccc1C(=O)NCC1(N2CCOCC2)CCCCC1`: the inhibition was inactive: 3.86%.

For the molecule `O=C(O)C1(Nc2ccccc2)CCN(Cc2ccccc2)CC1`, the inhibition was inactive: 6.53%.

As for `CC(C)(C)OC(=O)N1CCC(Nc2ccccc2)CC1`, the inhibition is inactive: -1.82%.

Turning to `CCCOc1ccc(C(=O)NCC2(N(C)C)CCCCC2)cc1`, the inhibition is inactive: 6.36%.

Consider `COc1cc(OC)cc(C(=O)NCC2(N3CCOCC3)CCCCC2)c1`, for which the inhibition is inactive: 8.39%.

With `COc1cccc(C(=O)N(c2cc(C)cc(C)c2)C2CCN(C(=O)OC(C)(C)C)CC2)c1`, the inhibition is inactive: 5.74%.

For `CCC(CO)(C(=O)OC1CN2CCC1CC2)c1ccccc1` (configuration not stated), the inhibition is inactive: -2.63%.

Regarding `CN1CCC(Nc2ccc(Cl)cc2)CC1`, the inhibition is inactive: 13.3%.

Consider `COc1cc(C(=O)NCC2(N3CCOCC3)CCCCC2)cc(OC)c1C`, for which the inhibition is inactive: 6%.

For `O=C(NCC1(N2CCOCC2)CCCCC1)c1cc(Br)ccc1Cl`, the inhibition is inactive: -3.54%.

For `COc1ccc(C(=O)NCC2(N3CCOCC3)CCCCC2)cc1OC`, the inhibition was inactive: -1.53%.

In the case of `CCOC(=O)N1CCC(Nc2ccc(C)cc2)CC1`, the inhibition was inactive: 15%.

Take `N/C(=N\O)c1c(N)no[n+]1[O-]`: the inhibition was inactive: 12.6%.

On to `O=C(OC1CN2CCC1CC2)C1c2ccccc2C=Cc2ccccc21` (configuration not stated), for which the inhibition is inactive: -0.09%.

As to `N#Cc1ccc(C(=O)NCC2(N3CCCCC3)CCCCC2)cc1`, the inhibition is inactive: -0.97%.

As to `CC(C)(C)OC(=O)N1CCC(N(C(=O)c2ccccc2)c2ccc(Cl)cc2)CC1`, the inhibition is inactive: 1.47%.

In the case of `CN(C)C1(CNC(=O)c2cccc(C#N)c2)CCCCC1`, the inhibition was inactive: 9.16%.

For `CCCN1CCC(Nc2cc(OC)cc(OC)c2)CC1`, the inhibition is inactive: 11.5%.

As to `Cc1cc(N(CCCl)CCCl)ccc1C=O`, the inhibition is inactive: 4.49%.

Take `c1ccc(CN2CCC(Nc3ccccc3)CC2)cc1`: the inhibition is inactive: 8.92%.

On to `O=C(NCC1(N2CCCCC2)CCCCC1)c1ccc(OC(F)F)cc1`, for which the inhibition is inactive: 4.48%.

`N#CC1(Nc2ccccc2)CCN(CCc2ccccc2)CC1`: the inhibition is inactive: 9.99%.

As to `CCN1CCC(Nc2ccc(Cl)cc2)CC1`, the inhibition was inactive: -5.28%.

For `CSc1ccc(C(=O)NCC2(N3CCOCC3)CCCCC2)cc1`, the inhibition was inactive: 11.5%.

Turning to `O=C(NCC1(N2CCCCC2)CCCCC1)c1cccc([N+](=O)[O-])c1`, the inhibition was inactive: 6.89%.

With `O=C(NCC1(N2CCCCC2)CCCCC1)c1cccc(C(F)(F)F)c1`, the inhibition was inactive: 14.3%.

Take `COc1cc(C(=O)NCC2(N3CCCCC3)CCCCC2)ccc1OC(F)F`: the inhibition is inactive: -13.3%.

On to `O=C(NCC1(N2CCOCC2)CCCCC1)c1cc(=O)[nH]c2ccccc12`, for which the inhibition was inactive: -1.02%.

Turning to `CN1CCN(CCOC(=O)C(O)(c2ccccc2)c2ccccc2)CC1`, the inhibition was inactive: 8.16%.

In the case of `CC(C)c1ccc(C(=O)NCC2(N3CCOCC3)CCCCC2)cc1`, the inhibition is inactive: 7.99%.

Consider `CC(C)c1ccc(NC2CCN(C(=O)OC(C)(C)C)CC2)cc1`, for which the inhibition is inactive: 3.06%.

`CN(C)c1cccc(C(=O)NCC2(N3CCCCC3)CCCCC2)c1`: the inhibition is inactive: 4.09%.

Take `COc1ccc(CN(CCCl)CCCl)cc1Cl`: the inhibition is inactive: -2.54%.

As to `O=C(NCC1(N2CCOCC2)CCCCC1)c1cc(F)c(F)cc1Cl`, the inhibition was inactive: 2.84%.

For `COc1cc(OC)c(C(=O)NCC2(N(C)C)CCCCC2)cc1OC`, the inhibition is inactive: 10%.

For the molecule `CN1CCC(Nc2cccc(F)c2)CC1`, the inhibition was inactive: 18.2%.

For `O=C(NCC1(N2CCCCC2)CCCCC1)c1cncc(Br)c1`, the inhibition is inactive: 6.21%.

As for `CCCOc1ccc(C(=O)NCC2(N(C)C)CCCCC2)cc1OC`, the inhibition is inactive: 11.2%.

Regarding `Cc1ccc(C(=O)NCC2(N(C)C)CCCCC2)o1`, the inhibition is inactive: 13.8%.

With `COc1ccc(C(=O)NCC2(N3CCCCC3)CCCCC2)c(OC)c1OC`, the inhibition was inactive: 0.92%.

For the molecule `CC(C)(C)OC(=O)N1CCC(N(C(=O)c2ccccc2)c2ccc(F)cc2)CC1`, the inhibition is inactive: 7.42%.

Regarding `COc1ccc(C(=O)NCC2(N3CCCCC3)CCCCC2)cc1`, the inhibition was inactive: -3.68%.

Consider `O=C(NCC1(N2CCCCC2)CCCCC1)c1cccs1`, for which the inhibition was inactive: -6.27%.

With `O=C(NCC1(N2CCCCC2)CCCCC1)c1ccc(=O)[nH]c1`, the inhibition is inactive: 1.32%.

Consider `Cc1cccc(NC2(C#N)CCN(Cc3ccccc3)CC2)c1`, for which the inhibition is inactive: 4%.

In the case of `CSc1ccccc1C(=O)NCC1(N2CCCCC2)CCCCC1`, the inhibition was inactive: 3.06%.

As to `Cc1cc(C)cc(N(C(=O)c2ccccc2)C2CCN(C(=O)OC(C)(C)C)CC2)c1`, the inhibition is inactive: 9%.

Regarding `O=C(NCC1(N2CCCCC2)CCCCC1)c1ccc(Cl)nc1`, the inhibition is inactive: 4.32%.

On to `O=C(NCC1(N2CCOCC2)CCCCC1)c1cc2ccccc2o1`, for which the inhibition is inactive: 13.4%.

With `COc1ccc(Cl)cc1C(=O)NCC1(N2CCOCC2)CCCCC1`, the inhibition was inactive: -1.09%.

`N#CC1(Nc2ccccc2)CCN(Cc2ccccc2)CC1`: the inhibition was inactive: 8.22%.

Turning to `O=C(NCC1(N2CCCCC2)CCCCC1)c1ccc(Cl)s1`, the inhibition was inactive: 4.82%.

Take `O=C(OC1CN2CCC1CC2)C1c2ccccc2Oc2ccccc21` (configuration not stated): the inhibition was inactive: 7.21%.

As for `O=C1CCN(Cc2ccccc2)CC1`, the inhibition is inactive: 0.53%.

As to `CCOc1ccc(C)cc1CN(CCCl)CCCl`, the inhibition was inactive: -2.2%.

As to `CCOC(=O)N1CCC(Nc2ccc(F)cc2)CC1`, the inhibition is inactive: 12.8%.

For `O=P1(N(CCCl)CCCl)SCCCS1`, the inhibition is inactive: -0.37%.

As to `CCCCOc1ccc(C(=O)NCC2(N3CCOCC3)CCCCC2)cc1`, the inhibition is inactive: 4.15%.

With `O=C(NCC1(N2CCCCC2)CCCCC1)c1ccc(F)cc1`, the inhibition was inactive: 10.2%.

With `CCOC(=O)N1CCC(Nc2cccc(C)c2)CC1`, the inhibition was inactive: 1.07%.

As to `COc1cc(C(=O)NCC2(N(C)C)CCCCC2)ccc1OC(F)F`, the inhibition is inactive: 4.63%.
